A short description of assay [1]: compound binding in COS7 lysate, probe aLAP1, primary screen, cell lysate, small-molecule microarray (AID 1124).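 Note: lysate comes from COS7 cells expressing LAP1 and is applied at 0.3 µg/mL; score merges spot fluorescence near 667 nm with signal-to-noise over triplicate slides.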 Conditions: probe aLAP1, fluorescence, higher = more signal.
Assay [2] concerns Sam68 (KHDRBS1). Nature of the assay: Sam68 small-molecule binders, primary screen, biochemical, small-molecule microarray, 635 nm fluorescence (AID 1125).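 Note: score merges 667 nm channel intensity with signal to noise over triplicate slides.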 Conditions: small-molecule microarray binding, higher = more signal.
Assay [3] relates to Chordin-like protein 2 (CHRDL2). Nature of the assay: CHRDL2 small-molecule binders, primary screen, biochemical, small-molecule microarray, 635 nm fluorescence (AID 1126).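 Note: printed compound slides probed with Chrdl2 protein at 4 µg/mL for 1 h at 4 C; score merges 667 nm emission intensity with signal to noise over three replicate slides.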 The note with it: small-molecule microarray binding, fluorescence 635 nm; higher = more signal.
Assay [4] has as its target Concanavalin-A (Canavalia ensiformis) (UniProt P02866). Nature of the assay: ConA small-molecule binders, primary screen, artefact control for SMM control protein annotation, biochemical, small-molecule microarray, Alexa647 label, 635 nm (AID 1127).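 Note: z combines 667 nm emission intensity with signal-to-noise across three replicate slides.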 Conditions: ConA-A647 binding fluorescence, higher = more signal.
Assay [5] can be described thus: anti-His antibody binders, primary screen, artefact control for SMM control protein annotation, biochemical, small-molecule microarray, 635 nm fluorescence (AID 1128).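 Note: score merges feature fluorescence with signal-to-noise for each printed compound spot.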 The note with it: anti-His Alexa647 antibody binding, higher = more signal.
In assay [6] the target is Focal adhesion kinase 1 (Homo sapiens) (UniProt Q05397). Briefly: small-molecule microarray binders of FAK, primary screen, biochemical, 635/667 nm fluorescence, BSA, DTT (AID 1130).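 Note: composite of spot emission at 667 nm and signal to noise over triplicate slides.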 The note with it: PTK2 binding, 635 nm fluorescence, higher = more signal.
In assay [7] the test system is Fibrinogen (Alexa647-labelled). Briefly: fibrinogen binders on compound microarrays, profiling panel, artefact control for SMM control-protein annotation, biochemical, small-molecule microarray, 635/667 nm fluorescence (AID 1131).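 Note: z-score merges 667 nm fluorescence with per-spot signal-to-noise over triplicate slides.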 The note with it: fibrinogen-A647 binding fluorescence, higher = more signal.
Assay [8] deals with Follistatin (Homo sapiens) (UniProt P19883). Briefly: follistatin binders on small-molecule microarrays, primary screen, biochemical, small-molecule microarray, 635/667 nm fluorescence (AID 1132). Conditions: FST binding, 635 nm fluorescence, higher = more signal.
Assay [9] addresses Fibroblast growth factor 2 (Homo sapiens) (UniProt P09038). Nature of the assay: FGF2 binders on small-molecule microarrays, primary screen, biochemical, small-molecule microarray, 635/667 nm fluorescence (AID 1133). Conditions: small-molecule microarray binding, FGF2, fluorescence 635/667; higher = more signal.
Assay [10] can be described thus: mitochondrial membrane potential change in A549 cells, profiling panel, cell-based, JC-1 fluorescence, basal, 24 h, 100 nL (AID 1138).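 Note: A549 lung adenocarcinoma cells under basal conditions with no added stimulus; test concentration not given here.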 The note with it: higher = more signal.
Assay [11] has as its system Lefty1. Nature of the assay: Lefty1 binders on small-molecule microarrays, primary screen, biochemical, small-molecule microarray, 635/667 nm fluorescence (AID 1139). Conditions: small-molecule microarray binding, fluorescence 635/667; higher = more signal.
The subject of assay [12] is wheat germ agglutinin (Triticum aestivum), Alexa647-labelled. Nature of the assay: wheat germ agglutinin binders on compound microarrays, profiling panel, artefact control for SMM control-protein annotation, biochemical, small-molecule microarray, 635/667 nm fluorescence (AID 1140).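 Note: score merges 667 nm feature emission with signal to noise over triplicate slides.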 The note with it: WGA-A647 binding, 635 nm fluorescence, higher = more signal.
Assay [13] has as its system Wnt5a (protein binding on small-molecule microarray). Nature of the assay: Wnt5a binders on small-molecule microarray, primary screen, biophysical, 635/667 nm fluorescence (AID 1142).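 Note: fluorescence read at 667 nm with signal to noise per printed feature.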 The note with it: 635 nm fluorescence, higher = more signal.
Assay [14] in a line: cell viability in Huh7 cells, primary screen, cytotoxicity control for HCV replication inhibitor project, CellTiter-Glo luminescence, basal, 48 h (AID 1143).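 Note: Huh7 hepatoma cells carrying a hepatitis C replication reporter with no stimulus; test concentration not given here.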 Conditions: Huh7 HCV replicon, higher = more signal, called active from +8 up or from −8 down.
A short description of assay [15]: CREB reporter modulators under forskolin, primary screen, cell-based, PC12, CRE-LacZ reporter, forskolin-stimulated (AID 1146).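 Note: PC12 cells with 6xCRE LacZ reporter stimulated by forskolin 10 µM; beta-galactosidase reporter signal reflecting CREB driven transcription.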 Conditions: luminescence, 4.5 h, higher = more signal, called active from +8 up or from −8 down.
Assay [16] addresses Streptavidin (Streptomyces avidinii) (UniProt P22629). Nature of the assay: streptavidin binders on small-molecule microarray, primary screen, artefact control for SMM compound annotation, biophysical, 635/667 nm fluorescence (AID 1147).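 Note: signal reflects streptavidin binding to arrayed compounds as a control protein.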 Conditions: streptavidin binding, higher = more signal.
Assay [17] can be described thus: small-molecule binders of probe aInhba, primary screen, biochemical, small-molecule microarray, 635/667 nm fluorescence (AID 1148).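 Note: score merges 667nm spot fluorescence with signal-to-noise for antibody binding to printed compounds.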 Conditions: higher = more signal.
Assay [18] addresses Torsin-1A (Homo sapiens) (UniProt O14656). Briefly: torsin A binders from cell lysate, primary screen, small-molecule microarray, wild-type, 635/667 nm (AID 1149). The note with it: COS7 hTOR1A-WT lysate, 635 nm fluorescence, higher = more signal.
Assay [19] shares this target. Nature of the assay: small-molecule binders of mutant TOR1A in lysate, primary screen, cell lysate, small-molecule microarray, COS7 lysate, 635/667 nm fluorescence (AID 1150).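 Note: score pools 667 nm emission and signal to noise measuring lysate protein binding.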 The note with it: COS7 hTOR1A mutant lysate, 635 nm fluorescence, higher = more signal.
For assay [20], the system named is Sonic hedgehog protein (Shh). Briefly: small-molecule binders of Shh protein, primary screen, biochemical, small-molecule microarray, 635/667 nm fluorescence (AID 1151).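 Note: Shh protein binding to compounds spotted on small-molecule microarray slides; score combines spot fluorescence intensity with signal-to-noise across triplicate slides.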 The note with it: small-molecule microarray binding, 635 nm fluorescence; higher = more signal.

The chains behind the UniProt entries cited, without tags or fusion partners. Where a name states a change or a piece, a line headed by the entry shows the natural chain unless it says otherwise.
UniProt P02866, whole entry, looked up: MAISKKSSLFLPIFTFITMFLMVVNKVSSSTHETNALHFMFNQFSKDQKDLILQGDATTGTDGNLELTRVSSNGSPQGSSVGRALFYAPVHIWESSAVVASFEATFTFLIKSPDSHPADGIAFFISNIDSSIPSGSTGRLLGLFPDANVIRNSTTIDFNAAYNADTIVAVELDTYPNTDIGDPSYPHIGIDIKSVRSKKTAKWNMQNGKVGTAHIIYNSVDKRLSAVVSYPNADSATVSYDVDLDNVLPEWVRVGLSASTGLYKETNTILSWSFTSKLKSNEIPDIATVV
UniProt Q05397, whole entry, looked up: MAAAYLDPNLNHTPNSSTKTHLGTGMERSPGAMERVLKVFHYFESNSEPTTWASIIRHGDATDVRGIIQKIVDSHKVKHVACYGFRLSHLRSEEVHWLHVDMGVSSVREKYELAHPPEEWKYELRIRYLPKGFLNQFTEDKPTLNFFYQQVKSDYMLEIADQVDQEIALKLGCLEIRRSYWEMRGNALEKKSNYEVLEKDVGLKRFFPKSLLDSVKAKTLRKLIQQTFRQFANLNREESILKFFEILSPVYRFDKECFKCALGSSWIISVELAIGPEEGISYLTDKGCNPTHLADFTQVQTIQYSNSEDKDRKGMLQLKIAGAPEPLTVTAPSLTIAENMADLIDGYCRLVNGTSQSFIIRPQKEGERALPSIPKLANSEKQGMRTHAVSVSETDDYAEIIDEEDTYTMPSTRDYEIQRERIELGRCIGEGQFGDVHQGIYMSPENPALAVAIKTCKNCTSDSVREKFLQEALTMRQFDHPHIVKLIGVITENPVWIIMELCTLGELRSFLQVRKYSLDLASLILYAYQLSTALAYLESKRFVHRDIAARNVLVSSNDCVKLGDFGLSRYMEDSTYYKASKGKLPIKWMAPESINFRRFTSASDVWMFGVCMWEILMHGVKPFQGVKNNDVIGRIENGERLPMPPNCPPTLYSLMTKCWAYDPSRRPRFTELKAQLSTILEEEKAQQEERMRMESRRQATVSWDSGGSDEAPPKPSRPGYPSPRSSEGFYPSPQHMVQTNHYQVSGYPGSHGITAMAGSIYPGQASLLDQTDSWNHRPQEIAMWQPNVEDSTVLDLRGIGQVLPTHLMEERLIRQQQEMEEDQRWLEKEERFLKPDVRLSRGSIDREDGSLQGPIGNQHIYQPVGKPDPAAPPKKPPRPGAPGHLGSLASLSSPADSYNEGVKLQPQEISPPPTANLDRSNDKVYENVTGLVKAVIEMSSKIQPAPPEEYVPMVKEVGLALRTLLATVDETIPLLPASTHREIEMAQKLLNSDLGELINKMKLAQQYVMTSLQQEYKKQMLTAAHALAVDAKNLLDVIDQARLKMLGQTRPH
UniProt P19883: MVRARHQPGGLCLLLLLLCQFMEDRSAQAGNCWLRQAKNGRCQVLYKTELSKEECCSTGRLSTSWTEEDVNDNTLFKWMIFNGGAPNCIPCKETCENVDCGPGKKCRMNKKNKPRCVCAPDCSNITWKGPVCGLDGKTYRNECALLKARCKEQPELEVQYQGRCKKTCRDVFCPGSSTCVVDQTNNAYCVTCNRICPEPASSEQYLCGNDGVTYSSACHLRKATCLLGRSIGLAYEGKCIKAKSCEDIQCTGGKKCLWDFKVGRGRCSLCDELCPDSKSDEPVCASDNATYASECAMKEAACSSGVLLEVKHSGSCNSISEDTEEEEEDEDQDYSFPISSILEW
UniProt P09038, whole entry, looked up: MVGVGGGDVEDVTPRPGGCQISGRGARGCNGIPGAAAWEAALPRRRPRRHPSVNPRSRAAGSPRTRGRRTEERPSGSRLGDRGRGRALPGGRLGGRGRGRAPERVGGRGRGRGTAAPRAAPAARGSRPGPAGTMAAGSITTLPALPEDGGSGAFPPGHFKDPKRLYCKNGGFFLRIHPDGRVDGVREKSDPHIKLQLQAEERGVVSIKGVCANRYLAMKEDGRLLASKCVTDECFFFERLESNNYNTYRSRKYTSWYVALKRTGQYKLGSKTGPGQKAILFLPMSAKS
UniProt P22629, whole entry, looked up: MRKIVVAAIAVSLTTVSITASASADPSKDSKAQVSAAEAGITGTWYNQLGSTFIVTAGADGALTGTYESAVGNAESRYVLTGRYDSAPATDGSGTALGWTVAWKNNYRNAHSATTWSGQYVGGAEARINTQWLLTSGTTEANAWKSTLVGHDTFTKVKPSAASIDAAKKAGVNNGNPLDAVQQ
UniProt O14656: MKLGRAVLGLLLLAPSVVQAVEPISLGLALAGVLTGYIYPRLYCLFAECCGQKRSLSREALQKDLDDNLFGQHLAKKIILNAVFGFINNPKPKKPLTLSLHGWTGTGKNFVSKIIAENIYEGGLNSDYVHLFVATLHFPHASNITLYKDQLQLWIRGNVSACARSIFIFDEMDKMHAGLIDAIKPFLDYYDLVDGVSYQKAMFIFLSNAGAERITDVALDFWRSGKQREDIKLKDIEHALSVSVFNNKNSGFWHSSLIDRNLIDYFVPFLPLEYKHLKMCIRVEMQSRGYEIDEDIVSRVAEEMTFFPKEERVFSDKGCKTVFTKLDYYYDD

This is a selection; strong and weak results do not stand in their true shares. Calls of active or inactive are those of the source.

Results on seven compounds are retold here after PubChem BioAssay.

As to `COP(=O)(/N=C1/CC(CCCO)=CC(c2ccc(CN3CCCC3)cc2)N1Cc1cc2c(cc1Br)OCO2)OC` (stereo not given), the composite z-score turned out to be 0.538 in assay [1]; 0.0067 in assay [2]; 1.24 in assay [3]; 0.606 in assay [4]; 0.761 in assay [5]; 0.517 in assay [6]. Moreover, the composite z-score in [7] came out at 0.524; in assay [8], 1.27; in assay [9], 1.34; in assay [11] it was 0.963; in assay [12], 0.807; in [13] it was 0.386. The composite z-score in assay [16] amounted to 0.481; in assay [17], 0.362; in [18] it was 0.792; in [19], 0.668; in [20] it was 0.953. Also, the values for the z-score in assay [10], in [14] and in [15] were 1.33, inactive: -1.81 and inactive: -1.8, respectively.

Turning to `CN1/C(=N\P(=O)(Oc2ccccc2)Oc2ccccc2)CC(CCCO)=CC1c1ccc(CN2CCCC2)cc1` (stereo not given), the composite z-score in [1] was 0.959; in [2] it was 0.834; in assay [3], 0.345; in assay [4], 1.13; in assay [5], 0.69; in assay [6] it was -0.0997. Moreover, the composite z-score was determined as 0.577 in assay [7]; 1.43 in [8]; 1.61 in assay [9]; 0.594 in assay [11]; 0.799 in [12]; 0.501 in assay [13]. The composite z-score in assay [16] was 1.29; in assay [17], 0.111; in [18], 0.338; in [19], 0.905; in [20], 0.459. Besides, the z-score in [10] is -0.159; in [14], inactive: -0.375; in assay [15], inactive: -0.098.

For `O=P(/N=C1/CC(c2ccc(CO)cc2)=CC(C2CC2)N1Cc1cc2c(cc1Br)OCO2)(Oc1ccccc1)Oc1ccccc1` (stereo not given), the composite z-score in assay [1] was 0.601; in assay [2] it was 1.32; in assay [3], 0.356; in assay [4] it was 1.18; in assay [5] it was 3.29; in assay [6], 0.0371. Also, the composite z-score in assay [7] worked out at 1.02; in assay [8], 1.2; in assay [9], 1.1; in [11], 0.168; in assay [12], 1.21; in assay [13], 0.652. Moreover, the composite z-score in [16] stood at 1.93; in assay [17], 0.0442; in assay [18], 0.191; in [19] it was 1.63; in [20], 0.111. Moreover, the figures for the z-score in [10], in [14] and in assay [15] were 1.6, inactive: -4 and inactive: -0.0864, respectively.

With `COP(=O)(/N=C1/CC(CCCO)=CC(c2ccc(CN3CCCC3)cc2)N1Cc1sc2ccccc2c1Cl)OC` (stereo not given), the composite z-score was 0.656 in [1]; 0.0518 in assay [2]; 1.13 in [3]; 0.436 in assay [4]; 0.535 in assay [5]; -0.748 in [6]. Moreover, the composite z-score in assay [7] was 0.358; in assay [8], 1.41; in assay [9], 1.81; in [11], 1.7; in [12], 0.401; in [13], 0.413. The composite z-score in assay [16] came out at 0.772; in assay [17], 0.767; in [18] it was 0.581; in assay [19], 0.95; in assay [20] it was 1.64. Besides, the z-score is 2.42 in assay [10], inactive: -1.87 in assay [14] and inactive: -1.62 in assay [15].

As to `O=P(/N=C1/CC(CCCO)=CC(C2CC2)N1Cc1cc2c(cc1Br)OCO2)(Oc1ccccc1)Oc1ccccc1` (stereo not given), the composite z-score in assay [1] is 0.717; in assay [2], 0.822; in [3], -0.526; in [4], 0.885; in assay [5], 2.25; in assay [6], 0.667. The composite z-score in assay [7] is 1; in [8] it was 0.333; in [9] it was -0.386; in assay [11], -0.294; in [12], 1.06; in assay [13], -0.205. Moreover, the composite z-score in [16] was 1.23; in assay [17] it was -0.0695; in assay [18] it was 1.51; in assay [19], 1.44; in assay [20] it was -0.609. The z-score in [10] was -0.382; in assay [14] it was inactive: -2.82; in assay [15], inactive: 0.515.

For the compound `O=P(/N=C1/CC(c2ccc(CO)cc2)=CC(C2CC2)N1Cc1sc2ccccc2c1Cl)(Oc1ccccc1)Oc1ccccc1` (stereo not given), the composite z-score in assay [1] is 0.471; in assay [2], 1.29; in assay [3], 0.685; in assay [4], 0.897; in assay [5], 0.92; in [6] it was 0.802. In addition, the composite z-score in assay [7] worked out at 0.947; in assay [8], 1.25; in [9] it was 1.14; in assay [11], 1.22; in [12] it was 1.13; in assay [13], 0.508. The composite z-score in assay [16] is 1.51; in [17] it was 0.177; in [18], -0.253; in [19] it was 0.772; in assay [20] it was 1.45. The values for the z-score in assay [10], in [14] and in [15] were -0.648, inactive: -3.81 and inactive: -1.65, respectively.

Consider `COP(=O)(/N=C1/CC(c2ccc(CO)cc2)=CC(c2cccs2)N1C)OC` (stereo not given), for which the composite z-score in assay [1] was -0.0217; in assay [2] it was -0.0011; in assay [3] it was 0.0625; in [4] it was 0.762; in [5] it was 0.62; in assay [6] it was -0.0565. Moreover, the composite z-score in [7] came to 0.341; in assay [8] it was 1.47; in assay [9], 1.13; in assay [11], 0.919; in [12], 0.303; in assay [13], 0.143. Further, the composite z-score in assay [16] is 0.699; in assay [17], 0.317; in assay [18], -0.555; in [19], 0.153; in assay [20], 0.642. Moreover, the z-score was 1.42 in assay [10], inactive: -0.536 in assay [14] and inactive: -0.58 in [15].
